The text below walks through data of patent publication US9669106B2, “Conjugate of monomethyl auristatin F and trastuzumab and its use for the treatment of cancer” (Pierre Fabre Medicament, priority 2015, dated 2017).

Where two headings read alike, the source gives them in different places.

In experiment [1] the test system is JIMT-1 xenograft model. The settings on record: cited from earlier work; for activity of multiple injections: 15 mg/kg Q6dn, published data.
Experiment [2] relates to Calu-3 xenograft model. The settings on record: 15 mg/kg every 6 days; published data (Cretella et al. 2014); cited from earlier work.
The test system of experiment [3] is Calu-3 xenograft model. In words: In vivo activity in the Calu-3 xenograft model. The settings on record: 1 i.p. injection of 3 mg/kg at D6, about DAR 4, tumors 250-260 mm^3; p<0.05 vs naked antibody. Also on record: species or system SCID mice. The protocol:
In order to confirm the in vivo efficacy of antibodies coupled to G-13 or E-13 compounds, they have been coupled to Tratuzumab and tested in the HER2 sensitive xenograft model Calu-3 known for its HER2 amplification and (3) expression. The antibody Tratuzumab was purchased from Euromedex, 24 Rue des Tuileries 67460 SOUFFELWEYERSHEIM/France.
All animal procedures were performed according to the guidelines of the 2010/63/UE Directive on the protection of animals used for scientific purposes. The protocol was approved by the Animal Ethical Committee of the Pierre Fabre Institute. Seven millions Calu-3 cells were injected subcutaneous into 7 weeks old SCID mice.
Six days after Calu-3 cell implantation, when tumors reached an average size of 250-260 mm^3, the animals were divided into groups of 6 mice according to tumor size and aspect. The different treatments were inoculated by intraperitoneal injections. The health status of animals was monitored daily. Tumor volume was measured twice a week with an electronic calliper until study end. Tumor volume is calculated with the following formula: (length×width^2)/2. Toxicity was evaluated following the weight of animals three times per week. […] In this example, the anti-tumor activity of Tratuzumab mAb coupled with either E-13 or G-13 at about DAR 4 was evaluated after 1 injections of a 3 mg/kg dose at D6. […]

The subject of experiment [4] is JIMT-1 xenograft model. The experiment is described as follows: In vivo activity in the JIMT-1 xenograft model. Also noted: species or system SCID mice.

For the substance “TDM-1: ADC on the market: Trastuzumab linked to the antimicrotubule agent DM1 (a maytansinoid)”, the “activity of multiple injections” value in the experiment with JIMT-1 xenograft model [1] (compared with 350 mm^3 experiment) and with JIMT-1 xenograft model [1] (compared with 650 mm^3 experiment) was “inactive” in each case. For the same substance, in the experiment on JIMT-1 xenograft model [1] (15 mg/kg every 6 days, published data (Barok et al. 2011)), the “potency compared with Trastuzumab-E-13 or Trastuzumab-G-13” value is “seems to be less potent”. The tumor regression result in the experiment on Calu-3 xenograft model [2] is “did not induced complete regression”.
Consider Trastuzumab-E-13, for which the tumor growth result in the experiment with Calu-3 xenograft model [3] is listed as “complete tumor growth regression in all treated mice”.
As to Trastuzumab-G-13, in the experiment with JIMT-1 xenograft model [4] (tumor volume 650 mm^3 (Days 36) at treatment, 20 days after a single injection), the tumor growth inhibition entry is “more than 50%”. In addition, in the experiment with Calu-3 xenograft model [3], the tumor growth entry is listed as “complete tumor growth regression in all treated mice”.
Take “Trastuzumab: antibody Trastuzumab (Herceptin; 4D5; Genentech) which targets HER2; purchased from Euromedex”: in the experiment with JIMT-1 xenograft model [4] (Trastuzumab alone, first experiment (FIG. 5)), the anti-tumoral effect entry is “did not have any anti-tumoral effect”.
